Molecular target: ATP-dependent translocase ABCB1 (Homo sapiens, UniProt P08183)
Assay: Inhibition of P-glycoprotein-mediated multidrug resistance in adriamycin-resistant human A2780/ADR cells by calcein AM assay
Format: cell-based

By UniProt entry, the sequences of proteins in these tests, tags left out.
UniProt P08183, whole entry: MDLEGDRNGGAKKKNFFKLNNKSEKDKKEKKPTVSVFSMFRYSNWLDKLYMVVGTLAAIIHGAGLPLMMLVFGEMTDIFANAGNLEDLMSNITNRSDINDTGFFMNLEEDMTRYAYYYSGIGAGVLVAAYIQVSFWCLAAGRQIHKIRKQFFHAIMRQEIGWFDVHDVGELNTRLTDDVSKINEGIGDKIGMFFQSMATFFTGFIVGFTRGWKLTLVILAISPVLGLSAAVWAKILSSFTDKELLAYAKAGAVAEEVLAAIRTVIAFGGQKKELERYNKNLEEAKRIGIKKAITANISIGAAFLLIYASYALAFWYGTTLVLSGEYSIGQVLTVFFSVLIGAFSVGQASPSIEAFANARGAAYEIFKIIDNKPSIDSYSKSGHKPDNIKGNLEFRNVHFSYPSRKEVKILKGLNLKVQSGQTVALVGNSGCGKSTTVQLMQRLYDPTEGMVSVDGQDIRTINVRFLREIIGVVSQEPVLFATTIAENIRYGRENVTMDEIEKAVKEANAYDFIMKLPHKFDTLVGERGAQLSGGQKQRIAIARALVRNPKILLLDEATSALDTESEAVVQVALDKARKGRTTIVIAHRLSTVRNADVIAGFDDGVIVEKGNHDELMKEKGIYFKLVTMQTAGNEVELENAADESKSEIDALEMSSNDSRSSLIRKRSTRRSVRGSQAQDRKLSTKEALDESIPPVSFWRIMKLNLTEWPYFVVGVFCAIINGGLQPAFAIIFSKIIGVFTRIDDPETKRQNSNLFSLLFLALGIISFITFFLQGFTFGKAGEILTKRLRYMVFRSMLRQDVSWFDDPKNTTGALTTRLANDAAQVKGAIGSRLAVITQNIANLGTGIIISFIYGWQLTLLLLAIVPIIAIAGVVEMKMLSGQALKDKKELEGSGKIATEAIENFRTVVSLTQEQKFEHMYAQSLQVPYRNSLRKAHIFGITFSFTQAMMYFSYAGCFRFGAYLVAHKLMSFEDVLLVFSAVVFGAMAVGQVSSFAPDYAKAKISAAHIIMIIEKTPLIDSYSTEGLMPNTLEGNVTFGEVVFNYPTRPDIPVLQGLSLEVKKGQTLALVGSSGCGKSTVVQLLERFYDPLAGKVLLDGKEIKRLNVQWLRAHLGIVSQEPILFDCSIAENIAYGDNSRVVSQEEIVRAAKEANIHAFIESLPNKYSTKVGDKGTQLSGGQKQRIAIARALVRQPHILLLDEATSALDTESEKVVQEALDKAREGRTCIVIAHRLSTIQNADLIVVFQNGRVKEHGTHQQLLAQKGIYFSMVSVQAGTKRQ

Row | Structure (SMILES) | IC50 [µM]
1 | COc1cc2c(cc1OC)CN(CCc1ccc(NC(=O)c3cc(OC)c(OC)cc3[N+](=O)[O-])cc1)CC2 | 13
2 | Nc1ccccc1C(=O)Nc1ccc(CCN2CCc3ccccc3C2)cc1 | 9.9
3 | COc1cc2c(cc1OC)CN(CCc1ccc(NC(=O)c3ccc(Br)cc3)cc1)CC2 | 2.4
4 | O=C(Nc1ccc(CCN2CCc3ccccc3C2)cc1)c1cnc2ccccc2c1 | 0.43
